These results are taken from patent US10287286B2, “Compounds” (Takeda Pharmaceutical Company Limited, priority 2015, dated 2019).

The chains behind the UniProt entries cited, without tags or fusion partners.
UniProt Q96KS0, whole entry: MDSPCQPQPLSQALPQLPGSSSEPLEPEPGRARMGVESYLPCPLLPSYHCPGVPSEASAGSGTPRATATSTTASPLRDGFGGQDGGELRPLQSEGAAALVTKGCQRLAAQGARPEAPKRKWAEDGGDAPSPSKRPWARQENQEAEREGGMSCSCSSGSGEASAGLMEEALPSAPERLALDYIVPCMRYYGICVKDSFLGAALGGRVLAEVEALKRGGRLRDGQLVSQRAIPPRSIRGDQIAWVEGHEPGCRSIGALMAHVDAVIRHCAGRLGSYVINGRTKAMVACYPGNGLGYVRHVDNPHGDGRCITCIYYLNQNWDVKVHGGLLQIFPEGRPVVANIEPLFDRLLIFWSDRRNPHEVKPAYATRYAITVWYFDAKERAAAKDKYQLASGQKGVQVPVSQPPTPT

This assay deals with PHD1 enzyme (residues 1-407) (Homo sapiens (Human), UniProt Q96KS0). Description: PHD1 Enzyme Assay (UPLC-MS detection of hydroxylated peptide product). The assay is classed as biochemical. To be noted: 20 nM, 60 min pre-incubation at room temperature.

By IC50 is commonly meant the midpoint of a concentration-inhibition curve. Read a high IC50 as weaker potency. Consider `COc1cccc(CCNC(=O)c2cc(-c3ccc(C#N)cc3)n3ncnc3c2)c1` [Example 50, 5-(4-cyanophenyl)-N-[2-(3-methoxyphenyl)ethyl]-[1,2,4]triazolo[1,5-a]pyridine-7-carboxamide], for which the IC50 stood at 0.927 µM.
As for `N#Cc1ccc(-c2cc(NCc3cccc(F)c3)cc3ncnn23)cc1` [Example 116, 4-(7-{[(3-fluorophenyl)methyl]amino}-[1,2,4]triazolo[1,5-a]pyridin-5-yl)benzonitrile], the figure is 0.029 µM.
As for `CC(=O)Nc1cc(-c2ccc(C#N)c(F)c2)n2ncnc2c1` [Example 139, N-[5-(4-cyano-3-fluorophenyl)-[1,2,4]triazolo[1,5-a]pyridin-7-yl]acetamide], the figure is 0.077 µM; as for `CC1(CNc2cc(-c3ccc(C#N)c(F)c3)n3ncnc3c2)COC1` [Example 127, 2-fluoro-4-(7-{[(3-methyloxetan-3-yl)methyl]amino}-[1,2,4]triazolo[1,5-a]pyridin-5-yl)benzonitrile], 0.047 µM; as for `N#Cc1ccc(-c2cc(NC3CC3)nc3ncnn23)cc1` [Example 96, 4-[5-(cyclopropylamino)-[1,2,4]triazolo[1,5-a]pyrimidin-7-yl]benzonitrile], 0.032 µM.
The value for `COc1cc(-c2cccc3ncnn23)ccc1Cl` [Example 213, 5-(4-Chloro-3-methoxyphenyl)-[1,2,4]triazolo[1,5-a]pyridine] was 7.14 µM; that for `N#Cc1ncc(-c2ccnc3ncnn23)cc1F` [Example 206, 3-fluoro-5-{[1,2,4]triazolo[1,5-a]pyrimidin-7-yl}pyridine-2-carbonitrile] was 3.62 µM; that for `CC(=O)Nc1cc(-c2ccc(C#N)c(F)c2C)n2ncnc2c1` [Example 233, N-[5-(4-Cyano-3-fluoro-2-methylphenyl)-[1,2,4]triazolo[1,5-a]pyridin-7-yl]acetamide] was 0.069 µM.
For the compound `COC(=O)Nc1cc(-c2ccc(C#N)cc2C)n2ncnc2c1` [Example 145, methyl N-[5-(4-cyano-2-methylphenyl)-[1,2,4]triazolo[1,5-a]pyridin-7-yl]carbamate], 0.066 µM corresponded to half-maximal inhibition (IC50).
The value for `Cc1ncc(NC(=O)c2cc(-c3ccc(C#N)cc3)n3ncnc3c2)cn1` [Example 54, 5-(4-cyanophenyl)-N-(2-methylpyrimidin-5-yl)-[1,2,4]triazolo[1,5-a]pyridine-7-carboxamide] was 0.73 µM; that for `N#Cc1ccc(-c2cc(C(=O)Nc3cccc(Cl)c3)cc3ncnn23)cc1` [Example 51, N-(3-chlorophenyl)-5-(4-cyanophenyl)-[1,2,4]triazolo[1,5-a]pyridine-7-carboxamide] was 0.978 µM; that for `N#Cc1ccc(-c2cc(NCC3COC3)cc3ncnn23)cc1` [Example 107, 4-{7-[(oxetan-3-ylmethyl)amino]-[1,2,4]triazolo[1,5-a]pyridin-5-yl}benzonitrile] was 0.005 µM.
The value for `CC1CC1C(=O)Nc1cc(-c2ccc(C#N)c(F)c2)n2ncnc2c1` (stereo not drawn) [Example 157, N-[5-(4-cyano-3-fluorophenyl)-[1,2,4]triazolo[1,5-a]pyridin-7-yl]-2-methylcyclopropane-1-carboxamide] was 0.057 µM.
For the compound `CC(=O)NCc1cc(-c2ccc(C#N)cc2)n2ncnc2c1` [Example 225, N-{[5-(4-Cyanophenyl)-[1,2,4]triazolo[1,5-a]pyridin-7-yl]methyl}acetamide], half-maximal inhibition (IC50) required 1.65 µM.
`N#Cc1ccc(-c2cc(C(N)=O)cc3ncnn23)cc1` [Example 58, 5-(4-cyanophenyl)-[1,2,4]triazolo[1,5-a]pyridine-7-carboxamide] yielded a concentration for half-maximal inhibition (IC50) of 0.145 µM.
For `N#Cc1ccc(-c2cc(NC(=O)C3CCO3)cc3ncnn23)cc1F` (stereo not drawn) [Example 243, N-[5-(4-Cyano-3-fluorophenyl)-[1,2,4]triazolo[1,5-a]pyridin-7-yl]oxetane-2-carboxamide], the IC50 worked out at 1.29 µM.
The value for `CN(CC1CC1)c1cc(-c2ccc(C#N)cc2)n2ncnc2n1` [Example 85, 4-{5-[(cyclopropylmethyl)(methyl)amino]-[1,2,4]triazolo[1,5-a]pyrimidin-7-yl}benzonitrile] was 0.164 µM; that for `N#Cc1ccc(-c2cc(N)cc3ncnn23)c(F)c1F` [Example 260, 4-{7-Amino-[1,2,4]triazolo[1,5-a]pyridin-5-yl}-2,3-difluorobenzonitrile] was 0.029 µM; that for `N#Cc1ccc(-c2cc(NCCC(F)(F)F)cc3ncnn23)cc1` [Example 108, 4-{7-[(3,3,3-trifluoropropyl)amino]-[1,2,4]triazolo[1,5-a]pyridin-5-yl}benzonitrile] was 0.009 µM.
As for `COCCOC(=O)Nc1cc(-c2ccc(C#N)c(F)c2)n2ncnc2c1` [Example 196, 2-methoxyethyl N-[5-(4-cyano-3-fluorophenyl)-[1,2,4]triazolo[1,5-a]pyridin-7-yl]carbamate], the figure is 0.19 µM; as for `CN1CCC(Nc2cc(-c3ccc(C#N)cc3)n3ncnc3n2)CC1` [Example 77, 4-{5-[(1-methylpiperidin-4-yl)amino]-[1,2,4]triazolo[1,5-a]pyrimidin-7-yl}benzonitrile], 2.04 µM.
The value for `N#Cc1ccc(-c2ccnc3ncnn23)c(Cl)c1` [Example 205, 3-chloro-4-{[1,2,4]triazolo[1,5-a]pyrimidin-7-yl}benzonitrile] was 0.97 µM.
The compound `CN(c1cc(-c2ccc(C#N)cc2)n2ncnc2n1)C1CC1` [Example 99, 4-{5-[cyclopropyl(methyl)amino]-[1,2,4]triazolo[1,5-a]pyrimidin-7-yl}benzonitrile] had an IC50 of 0.435 µM.
In turn, `N#Cc1ccc(-c2cc(NCCCN3CCOCC3)cc3ncnn23)cc1` [Example 109, 4-(7-{[3-(morpholin-4-yl)propyl]amino}-[1,2,4]triazolo[1,5-a]pyridin-5-yl)benzonitrile] showed an IC50 of 0.077 µM.
`N#Cc1ccc(-c2ccnc3ncnn23)c(F)c1` [Example 203, 3-fluoro-4-{[1,2,4]triazolo[1,5-a]pyrimidin-7-yl}benzonitrile] returned an IC50 of 1.11 µM.
The value for `N#Cc1ccc(-c2cc(C(=O)NCc3cccc(Cl)c3)cc3ncnn23)cc1` [Example 55, N-[(3-chlorophenyl)methyl]-5-(4-cyanophenyl)-[1,2,4]triazolo[1,5-a]pyridine-7-carboxamide] was 0.307 µM; that for `N#Cc1ccc(-c2ccnc3ncnn23)cc1F` [Example 201, 2-fluoro-4-{[1,2,4]triazolo[1,5-a]pyrimidin-7-yl}benzonitrile] was 1.12 µM.
As for `N#Cc1ccc(-c2cc(C(=O)O)cc3ncnn23)cc1` [Example 41, 5-(4-cyanophenyl)-[1,2,4]triazolo[1,5-a]pyridine-7-carboxylic acid], the figure is 0.459 µM; as for `N#Cc1ccc(-c2cc(NC(=O)C3CC3(F)F)cc3ncnn23)cc1F` (stereo not drawn) [Example 168, N-[5-(4-cyano-3-fluorophenyl)-[1,2,4]triazolo[1,5-a]pyridin-7-yl]-2,2-difluorocyclopropane-1-carboxamide], 0.218 µM; as for `Cc1cc(C#N)c(F)cc1-c1cc(N)cc2ncnn12` [Example 220, 4-{7-Amino-[1,2,4]triazolo[1,5-a]pyridin-5-yl}-2-fluoro-5-methylbenzonitrile], 0.073 µM.
As for `CC1CCN(C(=O)c2cc(-c3ccc(C#N)cc3)n3ncnc3c2)C1` (stereo not drawn) [Example 46, 4-[7-(3-methylpyrrolidine-1-carbonyl)-[1,2,4]triazolo[1,5-a]pyridin-5-yl]benzonitrile], the figure is 1.95 µM; as for `CC(=O)Nc1cc(-c2ccc(C#N)cc2F)n2ncnc2c1` [Example 244, N-[5-(4-Cyano-2-fluorophenyl)-[1,2,4]triazolo[1,5-a]pyridin-7-yl]acetamide], 0.131 µM; as for `CN(C)CCNc1cc(-c2ccc(C#N)cc2)n2ncnc2n1` [Example 72, 4-(5-{[2-(dimethylamino)ethyl]amino}-[1,2,4]triazolo[1,5-a]pyrimidin-7-yl)benzonitrile], 5.09 µM.
Regarding `N#Cc1ccc(-c2cc(CNC3CC3)cc3ncnn23)cc1` [Example 194, 4-{7-[(cyclopropylamino)methyl]-[1,2,4]triazolo[1,5-a]pyridin-5-yl}benzonitrile], the IC50 is 2.3 µM.
`N#Cc1ccc(-c2cc(NCc3ccccc3F)cc3ncnn23)cc1` [Example 115, 4-(7-{[(2-fluorophenyl)methyl]amino}-[1,2,4]triazolo[1,5-a]pyridin-5-yl)benzonitrile] returned an IC50 of 0.013 µM.
Compound `CC1(C(=O)Nc2cc(-c3ccc(C#N)c(F)c3)n3ncnc3c2)CCOCC1` [Example 165, N-[5-(4-cyano-3-fluorophenyl)-[1,2,4]triazolo[1,5-a]pyridin-7-yl]-4-methyloxane-4-carboxamide] yielded an IC50 of 0.65 µM.
`CN(C)CC(=O)Nc1cc(-c2ccc(C#N)c(F)c2)n2ncnc2c1` [Example 161, N-[5-(4-cyano-3-fluorophenyl)-[1,2,4]triazolo[1,5-a]pyridin-7-yl]-2-(dimethylamino)acetamide] gave an IC50 of 0.123 µM.
With `N#Cc1ccc(-c2cc(S(=O)(=O)NCC3CC3)cc3ncnn23)cc1` [Example 177, 5-(4-Cyanophenyl)-N-(cyclopropylmethyl)-[1,2,4]triazolo[1,5-a]pyridine-7-sulfonamide], the IC50 was 6.9 µM.
Consider `Cc1cc(C#N)ccc1-c1cc(NC(=O)C(O)C(F)(F)F)cc2ncnn12` (stereo not drawn) [Example 239, N-[5-(4-Cyano-2-methylphenyl)-[1,2,4]triazolo[1,5-a]pyridin-7-yl]-3,3,3-trifluoro-2-hydroxypropanamide], for which the IC50 amounted to 0.333 µM.
The value for `Cc1nc(C#N)ccc1-c1cc(O)cc2ncnn12` [Example 251, 5-{7-Hydroxy-[1,2,4]triazolo[1,5-a]pyridin-5-yl}-6-methylpyridine-2-carbonitrile] was 0.017 µM; that for `N#Cc1ccc(-c2cc(C(=O)NCCc3ccc(Cl)cc3)cc3ncnn23)cc1` [Example 49, N-[2-(4-chlorophenyl)ethyl]-5-(4-cyanophenyl)-[1,2,4]triazolo[1,5-a]pyridine-7-carboxamide] was 0.366 µM; that for `CN1CCCC(Nc2cc(-c3ccc(C#N)cc3)n3ncnc3n2)C1` (stereo not drawn) [Example 78, 4-{5-[(1-methylpiperidin-3-yl)amino]-[1,2,4]triazolo[1,5-a]pyrimidin-7-yl}benzonitrile] was 1.83 µM.
